From PubChem BioAssay
Most compounds without a hit are left out; they make up all but 0.11% or so of the library.
Eya2 phos inh: qHTS Assay for Inhibitors of the Phosphatase Activity of Eya2; Protein phosphatase EYA2 (Homo sapiens), O00167; 330,000 tested, 0.006% active; Potency, µM (titrated, usually from 76.9 µM), for the others: at the highest dose activity, negative = inhibition, hits mostly inhibitors; AID 488837, 2010; recombinant Eya2, OMFP fluorescence dephosphorylation (OMFP is methylfluorescein phosphate); also: % is scaled to controls: 0 for no effect and ±100 for the full control effect
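Eya2 protein (added as 0.2 uM solution) was preincubated with compound for 10 min at ambient temperature in 50 mM HEPES pH 7.5, 50 mM NaCl, 5 uM MgCl2, 0.05% BSA, 1 mM DTT. OMFP (added at 50 uM) then reacted 10 min; fluorescence read at 485/525 nm.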
USP2a block: qHTS Assay for Inhibitors of Ubiquitin-specific Protease USP2a Using CHOP2 as the Reporter. Ubiquitin carboxyl-terminal hydrolase 2 (Homo sapiens), O75604. USP2 core, Ub-CHOP2 coupled fluorogenic reporter, 485/531. Potency, µM (doses to about 38.3 µM), without a hit: at the top dose activity change, negative = inhibition, actives largely listed as inhibitors. 330,000 tested, 0.01% active. AID 463254, 2010;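 also: plate controls were DMSO wells for no effect and full inhibition by NEM control for full effect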
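Cell-free coupled assay: 10nM USP2 core preincubated 30min RT with compound in Tris-HCl pH 8.0/CaCl2/CHAPS buffer, then 25nM Ub-CHOP2 and 25nM reporter substrate; fluorescence (Ex 485/Em 531) read after 60min RT, normalized to NEM inhibition, concentration-response curves fitted.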
Rango dissoc inh: qHTS Assay for Inhibitors of RanGTP induced Rango (Ran-regulated importin-beta cargo) - Importin beta complex dissociation. Potency, µM (titrated, usually from 46.1 µM), for inactives: top-dose activity change, negative = inhibition. Biochemical FRET Rango-importin beta, RanGTP-induced dissociation. AID 540253, 2011. Snurportin-1 (Homo sapiens) + GTP-binding nuclear protein Ran (Homo sapiens) + Importin …. 340,000 tested, 0.071% active; calls by dose curve; also: % of control where 0% means no effect; nearly all actives have a fitted effect of over 45% in size
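Rango/importin beta premix (0.1/0.25 uM final), PBS + 1 mM DTT + 0.02% Tween-20 + 0.1% BSA; cpd 5 min RT; FRET pre-read; + RanGTP-RCC1 (0.6 uM Ran, 2 mM GTP, 0.2 uM RCC1); 45 min RT; FRET post-read, ex 430, em 486/530 nm.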
Rango complex inh: qHTS Assay for Inhibitors of Rango (Ran-regulated importin-beta cargo) - Importin beta complex formation; Importin subunit beta-1 (Homo sapiens), Q14974; Rango CFP/YFP FRET sensor + importin beta, 45 min; Potency, µM (top dose mostly 92.2 µM), for inactives: at the top dose inhibition of complex formation; 340,000 tested, 0.031% active; calls by dose curve;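 also: 0% = DMSO wells and 100% = buffer wells lacking importin beta; nearly all actives have a fitted effect of over 15% in size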
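FRET biosensor (snurportin 1 IBB flanked by EYFP and cerulean), 50 nM, with compound 5 min, then 0.125 microM importin beta in PBS, 1 mM DTT, 0.02% Tween-20, 0.1% BSA. CFP/YFP ratio read after 45 min at room temperature; pre-read flags interference.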
* marks the source's active call; other numbers are inactive results; ? = inconclusive; nt = not tested or not shown; ! = repeats disagree. Unless noted, calls follow the shape of the dose curve; as a rule, active = well fitted inhibition curve with a large enough effect; inconclusive = small, poorly fitted or top-dose-only effect, or effect the other way; inactive = flat fitted curve, though single readings scatter. Potency is read from the fitted curve at half-maximal effect.

Amino acid sequences for entries named in this document (tags omitted).
Importin subunit beta-1 (Homo sapiens), Q14974, UniProt Q14974, whole entry, looked up: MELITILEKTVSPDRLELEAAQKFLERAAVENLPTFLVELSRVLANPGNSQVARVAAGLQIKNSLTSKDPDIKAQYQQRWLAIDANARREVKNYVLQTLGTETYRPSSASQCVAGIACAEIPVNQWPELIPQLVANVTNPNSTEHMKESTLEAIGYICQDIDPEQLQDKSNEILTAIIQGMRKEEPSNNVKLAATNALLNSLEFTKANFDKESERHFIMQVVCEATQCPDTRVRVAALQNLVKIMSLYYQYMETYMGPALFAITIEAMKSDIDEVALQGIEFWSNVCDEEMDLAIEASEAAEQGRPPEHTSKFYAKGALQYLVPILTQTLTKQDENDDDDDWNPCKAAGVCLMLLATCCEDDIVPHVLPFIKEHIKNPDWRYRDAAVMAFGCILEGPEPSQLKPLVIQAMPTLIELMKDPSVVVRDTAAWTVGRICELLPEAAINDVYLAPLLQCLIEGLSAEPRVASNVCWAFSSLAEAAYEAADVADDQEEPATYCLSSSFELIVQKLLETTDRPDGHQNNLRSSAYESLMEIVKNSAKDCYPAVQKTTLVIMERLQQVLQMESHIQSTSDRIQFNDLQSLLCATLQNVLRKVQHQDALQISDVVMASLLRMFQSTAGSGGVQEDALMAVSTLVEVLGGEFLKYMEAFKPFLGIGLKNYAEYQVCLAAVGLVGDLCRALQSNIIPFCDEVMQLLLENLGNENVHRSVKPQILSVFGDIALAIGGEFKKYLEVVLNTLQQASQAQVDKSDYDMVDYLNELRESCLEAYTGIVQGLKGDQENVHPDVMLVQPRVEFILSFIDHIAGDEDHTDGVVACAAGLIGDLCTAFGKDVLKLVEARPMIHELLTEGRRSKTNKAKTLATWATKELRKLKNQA

molecule | Eya2 phos inh | USP2a block | Rango dissoc inh | Rango complex inh
CCOC(=O)c1c(/N=C/C2C(=O)NC(=S)NC2=O)sc2c1CCC2 | 7% | 10% | 9.2µM* | ?
CCOC(=O)c1c(/N=C/C2C(=O)NC(=S)NC2=O)sc(C)c1C | -17% | 8% | nt | nt
CCn1c(SCC(=O)Nc2nncs2)nnc1-c1ccco1 | -7% | 3% | -7% | -2%
CC(=O)Nc1ccc(N(C(=O)Cn2nnc3ccccc32)C(C(=O)NC2CCCC2)c2ccc(O)c(O)c2)cc1 (stereo unspecified) | -6% | 8% | -12% | ?
Cc1cc2c(C(C)C)c(O)c(O)c(C=O)c2c(O)c1-c1c(C)cc2c(C(C)C)c(O)c(O)c(C=O)c2c1O | 32µM*! | 5.6µM* | nt | nt
C#CCOCCOCCOCCNc1nc(N2CCN(C(=O)CCCCCCCCCCNC(=O)[C@H]([C@@H](C)CC)n3cc(CCCCN=C(N)N)nn3)CC2)nc(N2CCN(C(=O)CCCCCCCCCCNC(=O)[C@H](CO)n3cc(CCCCCN)nn3)CC2)n1 | -27% | ? | ? | 73µM*
Cn1ncnc2c(=O)n(C)c(=O)nc1-2 | 20µM* | 1% | 9% | -1%
CCCCOCCCn1c(N)c(C(=O)OC(C)COC)c2nc3ccccc3nc21 (stereo unspecified) | -6% | -2% | 9.2µM* | ?
N#CC(c1ccc(Cl)nn1)c1c(F)cccc1Cl (stereo unspecified) | 4% | 1% | -10% | ?
CN(C[C@H](Cc1ccccc1)N(C[C@H](c1ccccc1)N(CCc1ccccc1)N=O)N=O)N=O | ? | -1% | 10% | -4%

Results in Eya2 phos inh, for 2 of the compounds above:
| Molecule | Eya2 phos inh |
| --- | --- |
| CC(=O)Nc1ccc(N(C(=O)Cn2nnc3ccccc32)C(C(=O)NC2CCCC2)c2ccc(O)c(O)c2)cc1 (stereo unspecified) | -6% |
| Cc1cc2c(C(C)C)c(O)c(O)c(C=O)c2c(O)c1-c1c(C)cc2c(C(C)C)c(O)c(O)c(C=O)c2c1O | 32µM*! |
